# Measured properties of organic chemicals

Melting points are in °C.
The boiling point refers to atmospheric pressure (760 mmHg), by the definition of the set.
logP is the log10 of the octanol-water partition coefficient; higher is more lipophilic.
Solubility in water is on a log10 molar scale (set defined at 25 °C).
Vapor pressure is log10 of mmHg; the set covers 15 to 30 °C, mostly 20 to 25 °C.
The unbound fraction in human plasma runs from 0 (all bound) to 1 (all free).
Clint is human hepatic intrinsic clearance in µL/min per million cells; 0 means that no clearance was seen.

* CC/C=C\CC(C)OC(=O)c1ccccc1O (stereo partly drawn) [Benzoic acid, 2-hydroxy-, (3Z)-1-methyl-3-hexen-1-yl ester]: boiling point 282.4 °C; vapor pressure -2.803 (log10 mmHg)
* C=CC(=O)OCCOCCOCC [2-(2-Ethoxyethoxy)ethyl prop-2-enoate]: logP 1.105; vapor pressure -1.523 (log10 mmHg)
* CCCCC(CC)COC(=O)/C=C\C(=O)OCC(CC)CCCC (stereo partly drawn) [Bis(2-ethylhexyl) maleate]: logP 7.24; vapor pressure -5.638 (log10 mmHg)
* Cc1cc(CCC(=O)OCCOCCOCCOC(=O)CCc2cc(C)c(O)c(C(C)(C)C)c2)cc(C(C)(C)C)c1O: mp 78.4 °C; logP 4.7; water solubility -6.26 (log10 mol/L)
* CCCCOCCOC(=O)c1ccccc1C(=O)OCCOCCCC [Bis(2-butoxyethyl) phthalate]: boiling point 270 °C; water solubility -3.087 (log10 mol/L)
* CCCCCCCC/C=C\CCCCCCCC(=O)NCCCN(C)C [N-[3-(Dimethylamino)propyl]oleamide]: mp -8.9 °C; vapor pressure -7.815 (log10 mmHg)
* CCc1ccc2c(c1)C(=O)c1ccccc1C2=O [2-Ethylanthraquinone]: water solubility -5.984 (log10 mol/L); vapor pressure -6.046 (log10 mmHg)
* Cc1cc(/N=N/c2c([O-])c(C(=O)[O-])cc3ccccc23)c(S(=O)(=O)[O-])cc1Cl.[H+].[Mn+2]: logP -0.3; water solubility -4.435 (log10 mol/L)
* Cc1ncc(C[n+]2csc(CCOP(=O)(O)O)c2C)c(N)n1.[Cl-] [Monophosphothiamine]: mp 135 °C; logP -4.7
* C=COCCCCCCCCCCCCCCCCCC [Octadecane, 1-(ethenyloxy)-]: boiling point 349.2 °C; vapor pressure -5.305 (log10 mmHg)
* COC(=O)c1cc(F)ccc1N [Methyl 2-amino-5-fluorobenzoate]: logP 2.4; water solubility -1.956 (log10 mol/L)
* COCCCn1c(=O)c2c(N)c3c(=O)c4ccccc4c(=O)c3c(N)c2c1=O [C.I. Disperse Blue 60]: mp 194 °C; logP 4.2; water solubility -8.181 (log10 mol/L); vapor pressure -13.05 (log10 mmHg)
* O=C1CCCCCN1 [Caprolactam]: logP -0.035; fraction unbound 0.761; intrinsic clearance 0 µL/min/10^6 cells
* O=C1CCCCCN1C(=O)Nc1ccc(Cc2ccc(NC(=O)N3CCCCCC3=O)cc2)cc1: mp 177 °C; logP 5; water solubility -7.763 (log10 mol/L); vapor pressure -5.468 (log10 mmHg)
* O=C(Nc1cccc2c1C(=O)c1ccccc1C2=O)c1ccc(-c2ccc(N=Nc3ccc(-c4ccc(C(=O)Nc5cccc6c5C(=O)c5ccccc5C6=O)cc4)cc3)cc2)cc1 [C.I. Vat Yellow 33]: logP 1.7; water solubility -5.716 (log10 mol/L)
* CCOP(=O)(Cc1cc(C(C)(C)C)c(O)c(C(C)(C)C)c1)OCC: boiling point 317.8 °C; logP 2.9; water solubility -4.435 (log10 mol/L); vapor pressure -7.886 (log10 mmHg)
* CC(=O)OC1CCCCC1C (stereo not drawn) [2-Methylcyclohexyl acetate]: mp -31.6 °C; logP 2.75; water solubility -2.55 (log10 mol/L); vapor pressure 0.106 (log10 mmHg)
* CC(CCO)CC1=CCCCC1 (stereo not drawn) [1-Cyclohexene-1-butanol, .gamma.-methyl-]: mp -24 °C; boiling point 249 °C; logP 2.65; water solubility -2.755 (log10 mol/L); vapor pressure -2.77 (log10 mmHg)
* CCOC(=O)c1ccnc(C(=O)OCC)c1 [Diethyl pyridine-2,4-dicarboxylate]: mp 29.5 °C; logP 1.92; vapor pressure -3.782 (log10 mmHg)
* C=CSCCO [Ethanol, 2-(ethenylthio)-]: logP 0.6; vapor pressure -0.539 (log10 mmHg)
* CCCc1c2oc(C(=O)O)cc(=O)c2cc2c(=O)cc(C(=O)O)n(CC)c12 [Nedocromil]: water solubility -3.908 (log10 mol/L); fraction unbound 0.2
* CCCCCCCCCCCCCCCCCCOC(=O)/C=C/C(=O)OCCCCCCCCCCCCCCCCCC [2-Butenedioic acid (2E)-, di-C18-22-alkyl esters]: mp 70 °C; water solubility -7.094 (log10 mol/L)
* CC(=O)Nc1ccc(F)cc1-c1ccc(Cl)c(Cl)c1 [N-(3',4'-Dichloro-5-fluorobiphenyl-2-yl)acetamide]: mp 144.2 °C; boiling point 374.7 °C; water solubility -4.571 (log10 mol/L)
* Nc1ccc(C2(c3ccc(N)c(Cl)c3)c3ccccc3-c3ccccc32)cc1Cl [4,4'-(9H-Fluorene-9,9-diyl)bis(2-chloroaniline)]: logP 4.49; water solubility -6.904 (log10 mol/L); vapor pressure -8.586 (log10 mmHg)
* O=C(O)CCSCCC(=O)O [3,3'-Thiodipropionic acid]: logP 0.19; vapor pressure -4.478 (log10 mmHg)
* C=CC(=O)OCC(O)COc1ccccc1 (stereo not drawn) [2-Hydroxy-3-phenoxypropyl prop-2-enoate]: mp -48.1 °C; logP 2.03
* CC(C)c1ccc(CCC=O)cc1 [Benzenepropanal, 4-(1-methylethyl)-]: logP 3.5; water solubility -3.303 (log10 mol/L); vapor pressure -2.216 (log10 mmHg)

The last 2 entries again:

{"smiles": "C=CC(=O)OCC(O)COc1ccccc1", "stereo": "stereo not drawn", "name": "2-Hydroxy-3-phenoxypropyl prop-2-enoate", "mp (°C)": "-48.1", "logP": "2.03"}
{"smiles": "CC(C)c1ccc(CCC=O)cc1", "name": "Benzenepropanal, 4-(1-methylethyl)-", "logP": "3.5", "water solubility (log10 mol/L)": "-3.303", "vapor pressure (log10 mmHg)": "-2.216"}

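These are experimental values that the OPERA curators gathered from public databases to train and test their QSAR models. One number stands for a compound and property, with no spread given. Method and conditions are not stated for these values. The measured form (salt, isomer or mixture) is not always the one drawn. Some entries may be limits or estimates that an upstream database listed as plain numbers.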

From the experimental data distributed with OPERA 2.9.